The values that follow are results of earlier work, collected in publication PMC7640639 (Journal of medicinal chemistry, 2019).

Protein sequences, listed by entry. Tags and fused reporters are not part of them.
UniProt P21554, whole entry: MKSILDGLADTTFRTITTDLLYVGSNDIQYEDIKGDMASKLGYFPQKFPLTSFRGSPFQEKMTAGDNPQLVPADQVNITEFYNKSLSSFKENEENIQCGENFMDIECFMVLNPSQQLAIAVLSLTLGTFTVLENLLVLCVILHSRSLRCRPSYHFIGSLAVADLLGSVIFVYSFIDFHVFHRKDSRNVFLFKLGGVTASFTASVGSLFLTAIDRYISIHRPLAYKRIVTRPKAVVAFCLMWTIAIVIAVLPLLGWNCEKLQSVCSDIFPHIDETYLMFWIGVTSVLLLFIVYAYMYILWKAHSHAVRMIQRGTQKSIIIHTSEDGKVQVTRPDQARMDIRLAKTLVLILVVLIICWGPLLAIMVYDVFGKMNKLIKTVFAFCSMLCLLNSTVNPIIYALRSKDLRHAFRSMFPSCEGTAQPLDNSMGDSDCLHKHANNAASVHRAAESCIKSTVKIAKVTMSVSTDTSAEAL

The Ki is the dissociation constant of the complex between target and ligand, obtained from inhibition or displacement.

The data set deals with hCB1R (Homo sapiens, UniProt P21554). As to conditions: read-out: Ki hCB1R; cited from earlier work.

Regarding `Cc1ccc(Cn2nc(C(=O)N[C@@H]3C(C)(C)[C@@H]4CC[C@@]3(C)C4)cc2-c2ccc(Cl)c(C)c2)cc1` [SR-144,528], the inhibition constant Ki was 264 nM.
